Assay results taken from patent US8871778B2, “Substituted pyrimidine compounds and their use as SYK inhibitors” (Genosco, priority 2012, dated 2014).

Key:
[1] = test system: THP-1 cells; test: SYK-dependent TNF-α release assay (IgG stimulation), ELISA; type: cell-based; details: human IgG-coated plate, 18 hours, SYK-dependent pathway, read-out: TNF-α release inhibition, IgG stimulation (IC50 nM)
[2] = molecular target: full-length human SYK (Homo sapiens (Human), UniProt P43405); test: Inhibition of enzymatic SYK kinase activity (LANCE Ulight-TK peptide, Eu-antibody, 665 nm emission); details: read-out: SYK (IC50 nM); ATP at Km (15 uM)

Cc1cn(-c2ccnc(Nc3ccc4c(ccn4C)c3)n2)cc1CN1CC(O)C1 [Compound 52, 1-((4-methyl-1-(2-(1-methyl-1H-indol-5-ylamino)pyrimidin-4-yl)-1H-pyrrol-3-yl)methyl)azetidin-3-ol]
IC50 [1]: 94 nM

Cc1nn(-c2ccnc(Nc3ccc4c(c3)c(Cl)cn4C)n2)cc1CN1CC(O)C1 [Compound 144, 1-((1-(2-(3-Chloro-1-methyl-1H-indol-5-ylamino)pyrimidin-4-yl)-3-methyl-1H-pyrazol-4-yl)methyl)azetidin-3-ol]
IC50 [2]: 1.8 nM

Cc1nn(-c2ccnc(Nc3ccc4c(cnn4C)c3)n2)cc1CN1CC(O)C1 [Compound 160, 1-((3-Methyl-1-(2-(1-methyl-1H-indazol-5-ylamino)pyrimidin-4-yl)-1H-pyrazol-4-yl)methyl)azetidin-3-ol]
IC50 [2]: 15.2 nM
